Assay results reported in publication PMC9907956 (Journal of inorganic biochemistry, 2022).

Target: T1, human CYP11B1 (Homo sapiens, UniProt P15538)
T1 sequence (P15538 25-503): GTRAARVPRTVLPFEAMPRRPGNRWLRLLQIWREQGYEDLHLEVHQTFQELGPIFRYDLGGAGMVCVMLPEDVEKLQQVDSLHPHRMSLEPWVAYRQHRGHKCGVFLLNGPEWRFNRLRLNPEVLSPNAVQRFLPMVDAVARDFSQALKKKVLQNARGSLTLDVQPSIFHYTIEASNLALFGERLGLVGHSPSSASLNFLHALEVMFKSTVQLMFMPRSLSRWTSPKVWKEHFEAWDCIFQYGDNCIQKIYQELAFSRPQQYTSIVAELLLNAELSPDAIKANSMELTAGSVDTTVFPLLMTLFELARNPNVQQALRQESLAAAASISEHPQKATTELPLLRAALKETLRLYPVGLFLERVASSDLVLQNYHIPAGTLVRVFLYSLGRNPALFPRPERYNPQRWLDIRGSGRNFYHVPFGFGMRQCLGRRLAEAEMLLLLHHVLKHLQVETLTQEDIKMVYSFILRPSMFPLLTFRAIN
Experiment: Spectral ligand binding titration
Details: 0.2 μM CYP11B1, 5 cm cuvettes

Structure (SMILES)	Amax (1:1 CYP11B1 to adrenodoxin)	Amax (CYP11B1 alone)
N#Cc1ccc([C@H]2CCCc3cncn32)cc1 [(R)-fadrozole]	0.021	0.014
N#Cc1ccc([C@@H]2CCCc3cncn32)cc1 [(S)-fadrozole]	0.023	0.010
